By UniProt entry, the sequences of proteins in these tests, tags left out.
UniProt P68400, whole entry, looked up: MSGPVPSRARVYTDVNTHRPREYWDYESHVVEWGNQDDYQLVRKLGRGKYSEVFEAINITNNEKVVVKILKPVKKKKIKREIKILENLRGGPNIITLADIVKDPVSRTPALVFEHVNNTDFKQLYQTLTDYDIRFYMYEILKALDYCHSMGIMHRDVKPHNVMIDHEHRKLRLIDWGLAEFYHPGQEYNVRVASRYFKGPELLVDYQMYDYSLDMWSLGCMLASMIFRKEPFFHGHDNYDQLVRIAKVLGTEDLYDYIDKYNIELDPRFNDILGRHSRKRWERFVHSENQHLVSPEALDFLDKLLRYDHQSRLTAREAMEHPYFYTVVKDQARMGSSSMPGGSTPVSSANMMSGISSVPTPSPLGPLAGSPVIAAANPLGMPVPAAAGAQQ

In US9273057B2 (Bristol-Myers Squibb Company, priority 2012, dated 2016):

The compounds below were run against CK2A1 (CK2α/β) (Homo sapiens, UniProt P68400) (assay: CK2 kinase assay, CK2A1 (CK2α/β)). Conditions: read-out: CK2A1 (CK2α/β) (IC50); Table A.
Type: biochemical

Row | SMILES | IC50
1 | CCNc1nc(Nc2cc(C#N)cc(N3CC[C@H](NC(=O)OC)[C@H](O)C3)c2Cl)nn2c(C#N)cnc12 | 0.57 nM
2 | CCNc1nc(Nc2cc(C#N)cc(N3CC[C@@H](NC(=O)OC)[C@@H](O)C3)c2Cl)nn2c(C#N)cnc12 | 0.89 nM
3 | CCNc1nc(Nc2cc(C#N)cc(N3CC[C@H](NC(=O)OC)[C@@H](O)C3)c2Cl)nn2c(C#N)cnc12 (racemic) | 0.86 nM
